In this assay the test system is Bacillus subtilis ssp. shriramensis (MTCC-5674). The assay is described as follows: Antibiotic sensitivity test (antibiotic discs on T3 agar). Further: key: RES - Resistant; INT - Intermediate; SEN - Sensitive. Type of assay: cell-based. As to conditions: antibiotic disc on T3 agar, 30° C. for 24 hours; judged against Standards. On the procedure:
Different antibiotic discs were placed on the surface of the T3 agar plates labelled with the respective antibiotic. The plates were incubated at 30° C. for 24 hours.

For the compound `CCC[C@@H]1C[C@@H](C(=O)N[C@@H]([C@H]2O[C@H](SC)[C@H](O)[C@@H](O)[C@H]2O)[C@H](C)Cl)N(C)C1` [Clindamycin], the Result entry was “RES”.

These data come from patent US10327448B2, “Bacterium of Bacillus genus and uses thereof” (priority 2014, dated 2019).
